# Measured affinities in a library of Ab-14 light chain variants

Data: MIT Lincoln Laboratory AlphaSeq set, Engelhart et al. 2022, doi:10.1038/s41597-022-01779-4, as distributed in FLAb.

Target: peptide PDVDLGDISGINAS, taken from heptad repeat 2 (HR2) of SARS-CoV-2 spike.

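Variants in AAYL50 differ from the parent at up to three CDR positions; double and triple changes were sampled at random. AlphaSeq pools MATa yeast showing the antibodies with MATalpha yeast showing the peptide. Pairs that bind mate more often; barcode pairs of the diploids are counted by sequencing. Scores were corrected for input abundance and mapped to Kd with protein pairs of known affinity run in the same pool. The assay was run in three technical replicates.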

Each scFv is VH, a 15-residue (Gly4Ser)3 linker, VL, as in the parent Ab-14, and differs from it in the CDRs of the light chain only.
VH: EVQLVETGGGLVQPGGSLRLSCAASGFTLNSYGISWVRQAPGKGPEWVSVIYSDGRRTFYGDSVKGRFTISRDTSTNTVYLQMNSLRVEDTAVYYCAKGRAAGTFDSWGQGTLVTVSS
VL: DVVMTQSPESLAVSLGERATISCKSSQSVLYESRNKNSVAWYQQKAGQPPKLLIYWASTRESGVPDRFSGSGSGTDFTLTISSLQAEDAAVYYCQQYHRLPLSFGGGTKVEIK

Positions count from residue 1 of the parent VL; S28T puts T in place of S.
Each Kd is an estimate from the mating assay, the geometric mean of the replicates in which the pair was seen; lower is stronger.
"no signal" marks a missing value. The strain was present, yet no cells mated with the target were sequenced in any replicate, which points to weak or no binding.
Empty control strains, which show no peptide, gave a signal in 18% of pairings with library AAYL50; the median was 15 µM and 95% of these signals were weaker than 970 nM. No background was subtracted.
In this assay the parent's reference entry averaged 4.4 nM; its copy inside this library read 48 nM.

apparent Kd	seen in	changes
270 nM	3/3	S28T+S38C+L102S
48 µM	1/3	V39S+T59R+H98F
49 nM	3/3	N35R+K36E+T59S
58 nM	3/3	Q96D+R99Y+L102N
9.2 µM	1/3	V39Q+Q95E+L100V
4.4 nM	3/3	R34D+A57D+E61N
3.5 nM	3/3	R34N+S103L
no signal	0/3	R34C+N35E+V39K
45 nM	2/3	S26H+N35V+S58N
no signal	0/3	S33Y+R34P+T59K
190 nM	3/3	V29W+K36E+Q95F
3.4 µM	3/3	S28D+Q95C+H98T
no signal	0/3	S28C+K36F+S103R
8.1 µM	1/3	K36C+R60F+R99M
no signal	0/3	K36A+Y97H+R99D
no signal	0/3	K36G+V39H+L100D
1.8 µM	2/3	L30S+R60M+S103N
24 nM	3/3	N35D+K36V+N37E
29 µM	2/3	V29T+S33L+P101F
no signal	0/3	E32R+N37S+V39T
no signal	0/3	K36L+A57W+S103V
no signal	0/3	E32A+S38T+V39T
370 nM	3/3	E32H+R60V
25 µM	1/3	S25Y+A40Y+Y97S
310 µM	2/3	K24S+N35P+R60P
1.9 nM	3/3	K36E+E61S+S62V
11 µM	1/3	A40T+E61Y+S103F
10 µM	1/3	L30C+N35F+V39K
1.3 µM	3/3	S26E+S38M+Y97K
4.5 µM	1/3	E32V+R34L+R99G
39 nM	3/3	S26P+V29W+S33F
16 nM	3/3	S26Q+L30N+E32V
74 µM	2/3	N35K+A40Y+S62G
no signal	0/3	S33Y+N35H+A40K
9.5 nM	3/3	V39M+W56A+Y97S
10 nM	3/3	S25A+R34Y+L102T
9.4 nM	3/3	K24G+S28Q+E61V
9.1 nM	3/3	Q27T+S62H+P101T
76 µM	2/3	V29D+V39A+L102H
no signal	0/3	A40T+T59K+L100R
55 nM	3/3	Y31N+R99A+S103K
2.5 µM	1/3	E32F+H98A+L100C
no signal	0/3	N37M+S38L+Q95W
no signal	0/3	W56G+T59G+R60D
7.9 nM	3/3	V29N+N35I+H98W
no signal	0/3	K36W+S58T+P101Y
no signal	0/3	Q27T+R60H+Q96T
1.8 µM	1/3	V29Q+E32R+S38F
1.2 µM	1/3	R34W+A57C
97 nM	3/3	L30R+Q96C+R99V
no signal	0/3	A40R+L102C
2.8 nM	3/3	N35E+K36Q+R99S
93 nM	3/3	E61S+Q95C+L100E
3.9 µM	1/3	L30C+V39F+E61S
8.2 nM	3/3	S26G+R34Q+Q95E
1.1 nM	3/3	S28A+W56E+Q96Y
13 nM	3/3	S33M+L102H
4.5 nM	3/3	Q27E+S62H+Q95W
11 nM	3/3	Y31H+W56Q+L102E
5.4 nM	3/3	S25L+S28Y+E61L
13 µM	2/3	R34V+A40Q+S58G
no signal	0/3	S26Q+V29M+N37C
390 pM	3/3	E32D+W56H+S62E
3.0 nM	3/3	S25I+K36P+R99H
no signal	0/3	K24V+S26E+A40V
28 nM	3/3	S26Q+V29P+N35F
25 µM	2/3	S25W+Q27L+S28H
360 nM	3/3	S25D+Q96A+R99N

Excerpt, the final 5 entries:

changes	apparent Kd	seen in
S25I+K36P+R99H	3.0 nM	3/3
K24V+S26E+A40V	no signal	0/3
S26Q+V29P+N35F	28 nM	3/3
S25W+Q27L+S28H	25 µM	2/3
S25D+Q96A+R99N	360 nM	3/3